Broadly, the IC50 is the point on the concentration scale where inhibition reaches its midpoint. A higher IC50 goes with a need for much substance.

Molecules are shown by their SMILES.

Here are results for 1 compound from article PMC10583824, “The rational design of ARUK2007145, a dual inhibitor of the α and γ isoforms of the lipid kinase phosphatidylinositol 5-phosphate 4-kinase (PI5P4K)” (RSC Medicinal Chemistry, 2023).

This experiment deals with T1, PI5P4Kγ+ (Homo sapiens, UniProt Q8TBX8, D138G/D197E/E133P/E135D/E153T/E196G/G139A/N195G/S132L/S134N).
T1 sequence (Q8TBX8 with tags, fused parts or gaps INS131LPN/S132D/E133S/S134Q/E135A/G136R/D138G/G139A/E153T/N195G/E196G/D197E): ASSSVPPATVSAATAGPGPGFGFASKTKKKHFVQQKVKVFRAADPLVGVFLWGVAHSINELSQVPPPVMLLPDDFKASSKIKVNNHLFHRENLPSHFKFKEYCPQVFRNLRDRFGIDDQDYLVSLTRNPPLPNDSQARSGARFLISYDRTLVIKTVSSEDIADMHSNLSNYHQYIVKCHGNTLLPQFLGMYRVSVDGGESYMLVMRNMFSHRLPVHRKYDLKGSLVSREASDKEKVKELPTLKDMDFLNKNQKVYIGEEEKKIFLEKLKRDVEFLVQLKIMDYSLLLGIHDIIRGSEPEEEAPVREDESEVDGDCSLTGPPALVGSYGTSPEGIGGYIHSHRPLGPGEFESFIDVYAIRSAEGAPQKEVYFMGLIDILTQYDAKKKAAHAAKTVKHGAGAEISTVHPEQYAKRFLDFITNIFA
Nature of the experiment: biochemical. As to conditions: PI5P4Kγ+ pIC50, ADP-Glo; footnote a: inconsistent replicates, value shown is upper limit. Background: ADP-Glo turns the ADP formed in a reaction into a luminescent signal.

Take `COc1ccc(Nc2ncnc3c2ccn3-c2ccc(C)c(C)c2)cc1Cl` [Compound 3, reference compound]: the IC50 is > 50.1 µM.
